Read-outs that look alike come from different tables or passages of the source.
Key:
[1] = assay type: physicochemical; conditions: pH 8
Description: Chemical stability for Example 1 is determined in different buffers of various pH values. Samples are prepared in H2O to a 5 mg/mL concentration, dialyzed using Slide-A-Lyzer Dialysis cassettes, 2000 MWCO (part number 66203) overnight at 4° C. into the buffer of interest, filtered through a 0.22 μm filter (Millex, SLGV013SL) then diluted to 1 mg/mL in respective buffer. Buffer compositions are 10 mM Tris-HCl in H2O pH 8 (T8), 10 mM Tris-HCl in H2O pH 7 (T7), 10 mM Histidine in H2O pH 7 (H7), or 10 mM Citrate in H2O pH 6 (C6). Each 1 mg/mL sample is transferred to three vials. […] Stability is also assessed by size exclusion HPLC (SEC-HPLC) on an Insulin HMWP, 7.8×300 mm column (part number WAT2015549) with a running buffer of 20 mM Sodium Phosphate, 20% acetonitrile, pH 7.2 running at a flow rate of 0.5 mL/min for 40 min.

Sequences of proteins named here, by UniProt entry; tags and fusion partners are left off. Residues count along the entry.
UniProt P30082, 27-485: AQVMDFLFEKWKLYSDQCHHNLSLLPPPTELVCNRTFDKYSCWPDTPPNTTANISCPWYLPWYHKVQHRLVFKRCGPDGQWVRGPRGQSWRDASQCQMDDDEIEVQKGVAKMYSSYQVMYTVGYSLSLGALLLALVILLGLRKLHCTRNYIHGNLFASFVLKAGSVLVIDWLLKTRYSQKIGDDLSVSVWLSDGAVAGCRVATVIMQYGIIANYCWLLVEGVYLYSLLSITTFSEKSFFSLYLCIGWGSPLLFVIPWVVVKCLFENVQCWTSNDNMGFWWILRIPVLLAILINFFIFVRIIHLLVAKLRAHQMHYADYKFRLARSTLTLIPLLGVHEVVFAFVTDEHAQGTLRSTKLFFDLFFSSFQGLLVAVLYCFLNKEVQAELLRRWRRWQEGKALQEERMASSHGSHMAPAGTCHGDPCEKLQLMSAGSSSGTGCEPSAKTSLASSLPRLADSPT
UniProt P47871, 26-477: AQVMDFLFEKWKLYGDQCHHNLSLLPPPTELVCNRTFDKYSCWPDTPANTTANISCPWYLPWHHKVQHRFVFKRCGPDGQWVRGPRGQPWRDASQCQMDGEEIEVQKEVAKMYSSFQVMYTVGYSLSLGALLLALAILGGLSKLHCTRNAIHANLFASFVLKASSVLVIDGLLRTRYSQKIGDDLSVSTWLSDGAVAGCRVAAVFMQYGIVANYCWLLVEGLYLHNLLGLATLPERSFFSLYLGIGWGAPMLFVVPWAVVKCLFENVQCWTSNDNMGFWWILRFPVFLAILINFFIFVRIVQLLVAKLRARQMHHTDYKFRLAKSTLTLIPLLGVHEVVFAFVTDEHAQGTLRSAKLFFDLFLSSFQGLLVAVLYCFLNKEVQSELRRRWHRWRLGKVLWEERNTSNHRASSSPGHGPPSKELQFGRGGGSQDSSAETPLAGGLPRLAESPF
UniProt P43220, 24-463: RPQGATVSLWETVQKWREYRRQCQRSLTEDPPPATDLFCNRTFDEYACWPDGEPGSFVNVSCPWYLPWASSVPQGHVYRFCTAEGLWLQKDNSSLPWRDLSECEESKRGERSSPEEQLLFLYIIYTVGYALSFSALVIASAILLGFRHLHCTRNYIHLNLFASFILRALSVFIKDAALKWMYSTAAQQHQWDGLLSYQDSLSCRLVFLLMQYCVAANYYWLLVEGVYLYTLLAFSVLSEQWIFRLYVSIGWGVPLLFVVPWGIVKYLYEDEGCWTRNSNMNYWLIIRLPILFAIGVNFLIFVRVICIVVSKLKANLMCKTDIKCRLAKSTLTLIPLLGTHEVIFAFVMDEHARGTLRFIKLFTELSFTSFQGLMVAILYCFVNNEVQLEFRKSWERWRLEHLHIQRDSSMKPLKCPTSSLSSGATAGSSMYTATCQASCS
UniProt Q61606, 27-485: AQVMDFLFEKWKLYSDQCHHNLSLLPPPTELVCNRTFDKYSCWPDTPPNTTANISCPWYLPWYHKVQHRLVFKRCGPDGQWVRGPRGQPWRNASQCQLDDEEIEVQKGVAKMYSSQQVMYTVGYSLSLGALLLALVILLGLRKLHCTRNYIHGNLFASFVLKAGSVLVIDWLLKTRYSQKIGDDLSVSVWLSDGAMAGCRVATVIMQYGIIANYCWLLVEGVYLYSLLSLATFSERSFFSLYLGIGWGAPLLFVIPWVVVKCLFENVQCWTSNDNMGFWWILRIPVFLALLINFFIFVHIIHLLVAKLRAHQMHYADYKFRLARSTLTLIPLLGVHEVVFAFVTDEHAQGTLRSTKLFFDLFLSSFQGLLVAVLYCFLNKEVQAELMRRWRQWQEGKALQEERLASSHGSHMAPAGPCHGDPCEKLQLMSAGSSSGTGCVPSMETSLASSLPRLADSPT

[2] = target: T1, rat glucagon receptor (rGcg-R) (Rattus norvegicus, UniProt P30082); test: Radioligand competition binding (SPA), rGcg-R membranes; conditions: mean ± SEM
T1 construct: expressed in transfected cells; host or cells: 293HEK, transient (48 h), pcDNA3.1-ZeoR; crude plasma membranes

[3] = target: T2, human glucagon receptor (hGcg-R) (Homo sapiens, UniProt P47871); test: Radioligand competition binding (SPA), hGcg-R membranes; parameters: expressed in transfected cells; crude plasma membranes; conditions: mean ± SEM
[4] = Pharmacokinetics in Cynomolgus Monkeys; conditions: cynomolgus monkey, in vivo
Description: Plasma concentrations of compounds are determined by LC/MS methods. Each method measured the intact peptide (peptide plus linked time extension). For each assay, the compound and an analog, used as an internal standard (IS), are extracted from 100% rat or monkey plasma (50 μl) using methanol and 0.1% formic acid. Two distinct layers are formed upon centrifugation with the compound and the IS located in the supernatant. A 275 μl aliquot of the supernatant is transferred to a Thermo Protein Precipitation Plate where a vacuum is applied for collection of the flow through into a 96-well plate.
Samples are dried with heated nitrogen gas to remove the supernatant. A volume of 150 μl of 30% acetonitrile and 5% formic acid is added to the wells to reconstitute the samples. Injected samples (20 μl) are loaded onto a Supelco Analytical Discovery BIO Wide Pore C5-3, 5 cm×0.1 mm, 3 μm column. The column effluent is directed into a Thermo Q-Exactive mass spectrometer for detection and quantitation.
Male Cynomolgus monkeys are administered a single intravenous (50 nmole/kg) or subcutaneous (50 nmole/kg) dose of a test compound in Tris Buffer (pH 8.0) at a volume of 0.25 ml/kg. Blood is collected from each animal at 0.5 (IV only), 6, 12, 24, 48, 72, 96, 120, 168, 192, 240, 336, 480, 576, and 672 hours post-dose. Plasma concentrations of compounds are determined by LC/MS methods generally as described above in the Sprague dawley rat studies.
Mean (n=2) pharmacokinetic parameters are provided below in table 4.

[5] = target: T2, human glucagon receptor (hGcg-R); test: hGcg-R functional cAMP assay; assay type: cell-based; parameters: expressed in transfected cells; host or cells: 293HEK, plasmid phD, hygromycin selection
[6] = target: human Glucagon-Like Peptide-1 receptor (hGLP-1R) (Homo sapiens, UniProt P43220); test: hGLP-1-R functional cAMP assay
[7] = target: T3, hGIP-R (Homo sapiens, UniProt P48546); test: hGIP-R functional cAMP assay; assay type: cell-based
T3 construct: expressed in transfected cells; host or cells: CHO-S (Chinese Hamster Ovary, suspension), pcDNA3.1-NeoR, Geneticin selection
T3 sequence (P48546 22-466): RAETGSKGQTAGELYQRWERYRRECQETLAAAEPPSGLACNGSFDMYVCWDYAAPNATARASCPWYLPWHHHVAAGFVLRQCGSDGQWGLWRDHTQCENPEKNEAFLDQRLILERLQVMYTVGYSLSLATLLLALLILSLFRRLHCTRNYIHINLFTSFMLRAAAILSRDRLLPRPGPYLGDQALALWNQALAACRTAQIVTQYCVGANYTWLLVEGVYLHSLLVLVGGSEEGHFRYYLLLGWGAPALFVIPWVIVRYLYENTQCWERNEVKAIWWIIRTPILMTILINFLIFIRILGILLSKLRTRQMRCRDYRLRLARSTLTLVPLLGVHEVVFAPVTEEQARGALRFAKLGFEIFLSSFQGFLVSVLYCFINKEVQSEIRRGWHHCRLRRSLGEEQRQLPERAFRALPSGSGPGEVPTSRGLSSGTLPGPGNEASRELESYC

[8] = target: T4, mouse glucagon receptor (mGcg-R) (Mus musculus, UniProt Q61606); test: Radioligand competition binding (SPA), mGcg-R membranes; conditions: mean ± SEM
T4 construct: expressed in transfected cells; crude plasma membranes

[9] = male Cynomolgus monkeys, IV 50 nmol/kg, mean n=2
[10] = male Cynomolgus monkeys, SC 50 nmol/kg, mean n=2

With `CC(C)C[C@H](NC(=O)[C@H](Cc1c[nH]c2ccccc12)NC(=O)[C@H](CCC(=O)O)NC(=O)[C@@H](NC(=O)[C@H](Cc1ccccc1)NC(=O)[C@H](CCC(=O)O)NC(=O)[C@H](CCCCNC(=O)COCCOCCNC(=O)COCCOCCNC(=O)CC[C@H](NC(=O)CC[C@H](NC(=O)CCCCCCCCCCCCCCCCC(=O)O)C(=O)O)C(=O)O)NC(=O)[C@H](C)NC(=O)[C@H](CCCCN)NC(=O)[C@H](CCCCN)NC(=O)C(C)(C)NC(=O)[C@H](CC(=O)O)NC(=O)[C@H](CC(C)C)NC(=O)[C@H](Cc1ccc(O)cc1)NC(=O)[C@H](CCCCN)NC(=O)[C@H](CO)NC(=O)[C@H](Cc1ccc(O)cc1)NC(=O)[C@H](CC(=O)O)NC(=O)[C@H](CO)NC(=O)[C@@H](NC(=O)[C@H](Cc1ccccc1)NC(=O)[C@@H](NC(=O)CNC(=O)[C@H](CCC(N)=O)NC(=O)C(C)(C)NC(=O)[C@@H](N)Cc1ccc(O)cc1)[C@@H](C)O)[C@@H](C)O)C(C)C)C(=O)N[C@@H](CC(C)C)C(=O)N[C@@H](CCC(=O)O)C(=O)N[C@H](C(=O)NCC(=O)N1CCC[C@H]1C(=O)N[C@@H](CO)C(=O)N[C@@H](CO)C(=O)NCC(=O)N[C@@H](C)C(=O)N1CCC[C@H]1C(=O)N1CCC[C@H]1C(=O)N1CCC[C@H]1C(=O)N[C@@H](CO)C(N)=O)[C@@H](C)O` [Example 1] the “Sites of degradation by LC-MS” value [1] was “No major sites of degradation are identified”, the Ki [2] was 9.78 ± 0.22 nM and the Ki [3] was 2.04 ± 1.02 nM. For the same compound, the AUC(0-inf) [4, 9] was 37.3 µM·h, the half-life [4, 9] was 42 h and the AUC(0-inf) [4, 10] was 31.8 µM·h. The Tmax [4, 10] was 9 h, the half-life [4, 10] was 44 h and the CL/F ([4]; male, sc, 50 nmol/kg, read-out: CL or CL/F (converted)) was 1.57 mL/h/kg. The EC50 ([5]; cAMP, geometric mean ± SEM, read-out: hGcg-R EC50) was 0.00436 ± 0.00079 nM, the EC50 ([5]; sample C6.5-4 C.-4 wk, N = 2 ± SD, read-out: EC50 Gcg Receptor Assay) was 0.0178 ± 0.0068 nM and the EC50 ([5]; sample C6.5-40 C.-4 wk, N = 2 ± SD, read-out: EC50 Gcg Receptor Assay) was 0.0243 ± 0.0111 nM. For the same compound, the EC50 ([5]; sample C6.5MT-4 C.-4 wk, N = 2 ± SD, read-out: EC50 Gcg Receptor Assay) was 0.0188 ± 0.0018 nM, the EC50 ([5]; sample C6.5MT-40 C.-4 wk, N = 2 ± SD, read-out: EC50 Gcg Receptor Assay) was 0.0146 ± 0.005 nM and the EC50 ([5]; sample T7-4 C.-4 wk, N = 2 ± SD, read-out: EC50 Gcg Receptor Assay) was 0.0203 ± 0.0025 nM. It also gave an EC50 ([5]; sample T7-40 C.-4 wk, N = 2 ± SD, read-out: EC50 Gcg Receptor Assay) of 0.0217 ± 0.0034 nM, an EC50 ([5]; sample T7m-4 C.-4 wk, N = 2 ± SD, read-out: EC50 Gcg Receptor Assay) of 0.023 ± 0.0003 nM and an EC50 ([5]; sample T7m-40 C.-4 wk, N = 2 ± SD, read-out: EC50 Gcg Receptor Assay) of 0.0194 ± 0.005 nM. For the same compound, the EC50 ([6]; EC50 GLP-1 Receptor Assay, sample C6.5-4 C.-4 wk, N = 2 ± SD) was 41.6 ± 5 nM, the EC50 ([6]; EC50 GLP-1 Receptor Assay, sample C6.5-40 C.-4 wk, N = 2 ± SD) was 54.6 ± 46.2 nM and the EC50 ([6]; EC50 GLP-1 Receptor Assay, sample C6.5MT-4 C.-4 wk, N = 2 ± SD) was 55.6 ± 9.2 nM. It also gave an EC50 ([6]; EC50 GLP-1 Receptor Assay, sample C6.5MT-40 C.-4 wk, N = 2 ± SD) of 47.9 ± 5.8 nM, an EC50 ([6]; EC50 GLP-1 Receptor Assay, sample T7-4 C.-4 wk, N = 2 ± SD, *N = 1) greater than 100 nM and an EC50 ([6]; EC50 GLP-1 Receptor Assay, sample T7-40 C.-4 wk, N = 2 ± SD, *N = 1) of 57.5 nM. The EC50 ([6]; EC50 GLP-1 Receptor Assay, sample T7m-4 C.-4 wk, N = 2 ± SD, *N = 1) was 43.8 nM, the EC50 ([6]; EC50 GLP-1 Receptor Assay, sample T7m-40 C.-4 wk, N = 2 ± SD, *N = 1) was 49.7 nM and the EC50 ([6]; hGlp-1R EC50, cAMP, geometric mean ± SEM) was 73.9 ± 19.6 nM. For the same compound, the EC50 ([7]; cAMP, geometric mean ± SEM, read-out: hGIP-R EC50) was greater than 500 nM, the EC50 ([7]; sample C6.5-4 C.-4 wk, read-out: EC50 GIP Receptor Assay) was greater than 100 nM and the EC50 ([7]; sample C6.5-40 C.-4 wk, read-out: EC50 GIP Receptor Assay) was greater than 100 nM. It also gave an EC50 ([7]; sample C6.5MT-4 C.-4 wk, read-out: EC50 GIP Receptor Assay) greater than 100 nM, an EC50 ([7]; sample C6.5MT-40 C.-4 wk, read-out: EC50 GIP Receptor Assay) greater than 100 nM and an EC50 ([7]; sample T7-4 C.-4 wk, N = 2 ± SD, *N = 1, read-out: EC50 GIP Receptor Assay) greater than 100 nM. It also gave an EC50 ([7]; sample T7-40 C.-4 wk, N = 2 ± SD, *N = 1, read-out: EC50 GIP Receptor Assay) greater than 100 nM, an EC50 ([7]; sample T7m-4 C.-4 wk, N = 2 ± SD, *N = 1, read-out: EC50 GIP Receptor Assay) greater than 100 nM and an EC50 ([7]; sample T7m-40 C.-4 wk, N = 2 ± SD, *N = 1, read-out: EC50 GIP Receptor Assay) greater than 100 nM. It also gave a Ki [8] of 1.92 ± 0.71 nM.

Source: patent US9764004B2 (Eli Lilly and Company, priority 2015, dated 2017)
